The subject of data set [1] is melanoma cell line WM1552C. The experiment in a line: cell viability and cell survival assays. It is filed as cell-based, human. As to conditions: three independent biological experiments.
Data set [2] concerns melanoma cell line WM1552C. In words: miRNA arrays (TILDA_ABI and NCode_Invitrogen) of treated melanoma cells. Conditions: for let-7e expression, fold change compared to non-treated / miR-21 expression, fold change compared to non-treated / miR-34b expression, fold change compared to non-treated / miR-34c expression, fold change compared to non-treated / miR-132 expression, fold change compared to non-treated / miR-142-3p expression, fold change compared to non-treated / miR-145 expression, fold change compared to non-treated / miR-200a expression, fold change compared to non-treated / miR-375 expression, fold change compared to non-treated / miR-489 expression, fold change compared to non-treated / miR-496 expression, fold change compared to non-treated / miR-519b expression, fold change compared to non-treated / miR-654 expression, fold change compared to non-treated / miR-452 expression, fold change compared to non-treated: WM1552C treated 24 hrs, 3 μM-5AzadC, 1 mM-PBA.

Data set [3] concerns miR-34b expression in WM1552C melanoma cells. In words: Northern blot of miR-34b after 5AzadC treatment. Conditions: 1-2.5 μM of 5AzadC. In kind it is cell-based, human.
Data set [4] concerns miR-34b CpG islands in WM1552C. The experiment in a line: CpG island bisulfite sequencing after 5AzadC treatment. As to conditions: WM1552C treated with 5AzadC. In kind it is cell-based, human. The method, then:
To investigate epigenetic miRNA regulation within melanoma, one μg of genomic DNA was treated with sodium bisulfite according to the manufacturers protocol (Zymo). 2 μL of bisulfite-treated genomic DNA was used for bisulfite PCR. PCR was performed using AmpliTaq Gold thermostable polymerase (Applied Biosystems) and the following thermocycling profile: 6 minute hot-start at 95° C.; 35 cycles of 94° C. for 20 seconds, 54° C. for 25 seconds, and 72° C. for 30 seconds; 10 minute extension at 72° C. PCR products were gel purified using the QiaQuick gel extraction kit (Qiagen) and cloned into the pCR4-TOPO vector (Invitrogen). 9 clones for each miRNA candidate were sequenced using M13 primers and the BigDye Terminator kit v1.1 (Applied Biosystems), analyzed on a 3130×1 Genetic Analyzer (Applied Biosystems), and aligned using VectorNTI AlignX (Invitrogen).
Specifically, this study focused on the putative promoter region of −631 bps to −396 bps of the CpG islands upstream of miR-34b and focused on the putative promoter region of −170 bps to +58 bps of the CpG islands of miR-375. In addition, miR-124-3a and let-7i were used as negative controls because of the lack of CpG islands (data not shown). No CpG island methylation was detected in either miR-124-3a or let-7i.
miR-34b demethylation results were further confirmed by the CpG island bisulfite studies. […] See FIG. 15, FIG. 16, and FIG. 18. […]

A further data set has as its system NOTCH1. In words: qRT-PCR and Western blotting of NOTCH1 in WM1552C/34b cells. In kind it is cell-based, human. Conditions: WM1552C/34b compared to WM1552C; ectopic expression. The procedure: To understand the significance of down-regulation of miR-34b in malignant melanoma, and thus to develop a systematic rationale for its possible future use as a tumor suppressor and biomarker, its mechanism of action or normal cellular function in skin cells must be understood. FIG. 19 serves as an example model. First, candidate target genes of miR-34b were determined using computational resources including miRanda, miRbase, miRNAmap, Tarbase, PicTar, Target ScanS, and DIANA MicroTest (http://www.ncrna.org). Second, first degree interaction maps (FIG. 20) from each putative target gene were generated to computationally evaluate whether the putative target genes were biologically significant. In this preliminary analysis the putative target genes for miR-34b were imported to GeneGo software for further analysis. In FIG. 20, the nodes in the interaction map indicate direct interaction between miR-34b and their putative target genes. From the most connected and representative genes on the network and pathway analyses, it seems that organogenesis, proliferation, development and cell cycle regulation themes are prevalent, along with ECM signaling, ion and/or vesicle transport. Damage response genes can also be observed, and some well-known signaling cascades (MAPK, IP3) were represented among the putative targets of miR-34b. […]
Background: Quantitative PCR measures a nucleic acid by following its amplification.

Consider `O=C(O)CCCc1ccccc1` [4PBA], for which, in data set [1], the “doses shown to be toxic (cell death)” value is reported as no less than 5 mM. For the same compound, in data set [2], the “let-7e expression, fold change compared to non-treated” value is recorded as 0.1571; the “miR-21 expression, fold change compared to non-treated” value was 0.09011; the “miR-34b expression, fold change compared to non-treated” value is listed as −1.872; the “miR-34c expression, fold change compared to non-treated” value is on record as −0.7958. Also, in data set [2], the “miR-132 expression, fold change compared to non-treated” value is 1.033; the “miR-142-3p expression, fold change compared to non-treated” value was 3.621; the “miR-145 expression, fold change compared to non-treated” value is −2.28; the “miR-200a expression, fold change compared to non-treated” value was determined as 2.089. In data set [2], the “miR-375 expression, fold change compared to non-treated” value worked out at 3.397; the “miR-489 expression, fold change compared to non-treated” value stood at 3.527; the “miR-496 expression, fold change compared to non-treated” value is on record as −0.4714; the “miR-519b expression, fold change compared to non-treated” value worked out at 0.2083. Moreover, the “miR-654 expression, fold change compared to non-treated” value in data set [2] was −0.3226. Further, in data set [2] (first miR-452 line of Table 3), the “miR-452 expression, fold change compared to non-treated” value is reported as −2.272. For the same compound, the “miR-452 expression, fold change compared to non-treated” value in data set [2] (second miR-452 line of Table 3) is on record as −0.534.
On to `Nc1ncn([C@H]2C[C@H](O)[C@@H](CO)O2)c(=O)n1` [5AzadC], for which, in data set [3], the “miR-34b expression (Northern blot), low concentrations” value is given as “No visible expression changes”. Besides, the “CpG island methylation (bisulfite studies)” value in data set [4] is reported as “completely removed previously methylated sites”. Moreover, the “expression levels of several miRNAs in TLDA arrays” value in data set [2] (WM1552C melanoma cells after 5AzadC) is recorded as “marked increase”. In data set [2], the “let-7e expression, fold change compared to non-treated” value was found to be 2.96; the “miR-21 expression, fold change compared to non-treated” value turned out to be 2.124; the “miR-34b expression, fold change compared to non-treated” value was 5.159; the “miR-34c expression, fold change compared to non-treated” value turned out to be 4.525. In addition, in data set [2], the “miR-132 expression, fold change compared to non-treated” value is on record as 3.239; the “miR-142-3p expression, fold change compared to non-treated” value was 2.928; the “miR-145 expression, fold change compared to non-treated” value amounted to 2.948; the “miR-200a expression, fold change compared to non-treated” value stood at 2.294. Besides, in data set [2], the “miR-375 expression, fold change compared to non-treated” value came to 4.701; the “miR-489 expression, fold change compared to non-treated” value is 2.064; the “miR-496 expression, fold change compared to non-treated” value is 2.291; the “miR-519b expression, fold change compared to non-treated” value came out at 2.46. Also, in data set [2], the “miR-654 expression, fold change compared to non-treated” value stood at 2.422. Further, the “miR-452 expression, fold change compared to non-treated” value in data set [2] (first miR-452 line of Table 3) was 2.044. Further, the “miR-452 expression, fold change compared to non-treated” value in data set [2] (second miR-452 line of Table 3) is listed as 3.182.
“miR-34b: miRNA ectopically expressed in WM1552C/34b cells, CAAUCACUAACUCCACUGCCAU (listed as Homo sapiens)”: the “NOTCH1 expression (qRT-PCR, Western blotting)” value with NOTCH1 is “Down-regulation”.
